# From patent US20080249178A1, “MAGNESIUM COMPOSITIONS AND USES THEREOF FOR INCREASING LIFESPAN” (priority 2007, published 2008)
# Assay: Magnesium absorption rate in rats (metabolic cages, urine and feces magnesium by ICP-AES)
# Conditions: higher dosage compositions; magnesium chloride in water, magnesium gluconate in skim milk or water comprising 5 weight percent lactose
# Procedure: Fifty 3-month old, male Sprague Dawley (SD) rats were divided into five groups of ten rats. Rats of this age and older are considered adult. Each of the rats was placed in a separate metabolic cage equipped with urine- and feces-collecting wells. All of the rats were maintained in a temperature-controlled room (22° C. to 25° C.) with a dark period from 08:00 pm to 08:00 am daily. From day 1 through day 3, each rat was fed daily 15 g of magnesium-free food and de-ionized water. […] The medium was skim milk for Composition 1 and Group 1, milk prepared from powdered milk, by diluting the powdered milk with water to obtain a composition like that of skim milk, for Composition 2 and Group 2, 1% milk cream in water for Composition 3 and Group 3, water comprising 5 weight percent lactose for Composition 4 and Group 4, and water for the Control Composition and Control Group. […]
# From day 4 through day 10, urine from each rat was collected daily. The collected urine from each rat was then pooled together and the total volume of the pooled urine from each rat was recorded. The pooled urine from each rat, in an amount of […], was analyzed for magnesium content using an inductively coupled plasma-atomic emission spectrometer (ICP-AES). […] The pooled feces from each rat, in an amount of 0.5 g, were analyzed for magnesium content using an ICP-AES. […]
substance,measurement,value
magnesium gluconate,magnesium absorption rate at relatively high magnesium dosage,suitably close to those associated with the lower dosage compositions
